{"source": "patent US10385405B2", "about": "“Gene expression markers of tumor resistance to HER2 inhibitor treatment” (GENENTECH, INC., priority 2007, dated 2019)", "key": {"[1]": {"test_system": "BT474M1 cells", "experiment": "3D culture of BT474M1 cells with dox-inducible PPM1H shRNA, colony size", "type": "cell-based, human", "conditions": "3D culture for 10 days", "procedure": "FIG. 23. […] Data are represented as box and whisker plots (whiskers are 5th and 95th percentile).\nTo determine the impact of PPM1H knockdown in 3D culture, we created stable BT474M1 cell lines carrying doxycycline (dox)-inducible PPM1H shRNA. […] The same cell line was grown in 3D culture for 10 days in the presence or absence of dox, after which colony size was visualized and quantitated. […] PPM1H knockdown was verified at the protein level in the 3D culture model (FIG. 25)."}, "[2]": {"test_system": "HER2-expressing tumors", "conditions": "patients who test positive for HER2 by IHC or FISH; cited from earlier work"}}, "data": [{"substance": "trastuzumab: recombinant humanized version of the murine HER2 antibody 4D5", "values": [{"measurement": "colony size compared to untreated colonies", "setting": "[1]; absence of dox", "result": "significantly smaller"}, {"measurement": "trastuzumab effect on colony size", "setting": "[1]; presence of dox (PPM1H knockdown)", "result": "significantly diminished"}, {"measurement": "patients exhibiting an objective response", "setting": "[2]", "result": "approximately 30%"}]}]}
